Earlier results on two compounds are cited in patent US12257245B2, “Methods and compositions for inhibition of EGF/EGFR pathway in combination with anaplastic lymphoma kinase inhibitors” (In3Bio Ltd., priority 2018, dated 2025).

Series [1] has as its system ALK-positive NSLC. The conditions noted are these: phase III versus standard chemotherapy; cited from earlier work.
For series [2], the system named is ALK-fusion-positive NSCLC. The conditions noted are these: cited from earlier work.
For series [3], the system named is ALK-positive NSLC. Conditions: cited from earlier work.
Series [4] deals with total EGFR in EGFR-mut cells such as PC9, H1975 or H3255. Conditions: cetuximab 1 to 2 hours; anti-EGF VacAbs 24 hours of incubation; cited from earlier work.
The subject of series [5] is PC9 xenografts. Conditions: cited from earlier work.
[6] abbreviates: ALK-positive treatment-naive patients.

Where two headings read alike, the source gives them in different places.

With `C[C@@H](Oc1cc(-c2cnn(C3CCNCC3)c2)cnc1N)c1c(Cl)ccc(F)c1Cl` [Crizotinib], in series [1], the orr was 65% and the pfs is 7.7 months. In addition, the “median PFS” value in series [2] is 13 months. Also, in series [3] (setting [6]), the mpfs is 10.9 months and the orr is listed as 74%. Moreover, the mpfs hr in series [3] (crizotinib versus chemotherapy) is listed as 0.45. For the same compound, the “overall survival versus chemotherapy” value in series [3] (in vivo) is reported as “No differences”.

For “Cetuximab: anti-EGFR monoclonal antibody”, in series [4], the “levels of total EGFR (receptor down-regulation)” value is given as “markedly decrease”. In addition, the “enhancement of the effects of gefitinib” value in series [5] is on record as “failed to enhance the effects of gefitinib”.
